Test results taken from patent US20140170096A1, “SUNSCREEN COMPOSITIONS” (priority 2011, published 2014).

How the values were obtained:
[1] = system: viruses in water surrounding coral nubbins; experiment: Viral abundance and viral enrichment in seawater surrounding coral nubbins (microcosm incubation); conditions: ratio of viral abundances, end vs start of incubation
[2] = system: prokaryotes in water surrounding coral nubbins; experiment: Prokaryotic (bacterial) abundance and enrichment in seawater surrounding coral nubbins (microcosm incubation); conditions: incubation 12 h; seawater surrounding Acropora sp. nubbins

Structure (SMILES): CO[C@@]12[C@H](COC(N)=O)C3=C(C(=O)C(C)=C(N)C3=O)N1C[C@@H]1N[C@@H]12 [MITO, Mitomycin C, reference compound]
- Viral enrichment factor (VEF) [1]: 14.33

Structure (SMILES): Cc1c(C)c2c(c(C)c1O)CC[C@@](C)(CCC[C@H](C)CCC[C@H](C)CCCC(C)C)O2 [System D16, Alpha-tocopherol]
- Bacterial abundance (total bacterial number, TBN) [2]: 1.18E+06
